Earlier results in patent US20080009782A1.
Read-outs that look alike come from different tables or passages of the source. Some compounds may have been tested in ways that are not shown here.

Conditions: for plasma concentration after simple diffusion: citrate buffer at pH 5

SMILES | lag time (time required to achieve peak plasma levels) (electrotransport delivery) | lag time (time required to achieve peak plasma levels) (passive transdermal patches) | plasma concentration after simple diffusion
CCC(=O)N(c1ccccc1)C1CCN(CCc2ccccc2)CC1 | 1.5 h | 14 h | did not produce any detectable plasma concentration
CCC(=O)N(c1ccccc1)C1(COC)CCN(CCc2cccs2)CC1 | 1.5 h | 14 h | did not produce any detectable plasma concentration
